This is a selection; strong and weak results do not stand in their true shares. Active and inactive are the calls of the source.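 The calls were made as follows: active = fluorescence ratio above 2.44, which is 1 plus 3 SD of all ratios; inconclusive = signal too bright to measure linearly, ratio around 10 or more; inactive = fluorescence ratio below 2.44.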
Experiment: intrinsic compound fluorescence with Jurkat cells – cell-based, flow cytometry, artefact control for VLA-4 allosteric ligand project, primary screen (AID 576);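 also: green fluorescence of cells measured with 488 nm excitation and 530 nm emission; tested at 10 µM compound in the well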
Settings: compound autofluorescence, hits give high values, 1 = vehicle-only cell background

Compound	fluorescence ratio
N#CC1(Nc2ccccc2)CCN(CCc2ccccc2)CC1	inactive: 1.03
Fc1ccccc1NC1CCN(Cc2ccccc2)CC1	inactive: 0.92
